Test results reported in ChEMBL document CHEMBL1152852, “Substituted benzo[d]oxazol-2(3H)-one derivatives with preference for the sigma1 binding site” (Eur J Med Chem, 2009).

Chains of the proteins cited; added tags and fusions are not shown.
UniProt Q9R0C9, whole entry: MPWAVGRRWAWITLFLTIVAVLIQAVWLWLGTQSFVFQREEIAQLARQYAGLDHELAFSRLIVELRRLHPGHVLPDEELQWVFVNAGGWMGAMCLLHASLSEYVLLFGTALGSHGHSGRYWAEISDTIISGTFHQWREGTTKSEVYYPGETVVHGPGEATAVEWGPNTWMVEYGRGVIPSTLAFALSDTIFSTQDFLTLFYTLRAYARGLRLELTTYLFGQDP

How the values were obtained:
[1] = molecular target: Sigma non-opioid intracellular receptor 1 (Rattus norvegicus, UniProt Q9R0C9); test: Displacement of [3H](+)-pentazocine from sigma 1 receptor in rat liver membrane; assay type: cell membranes
[2] = species: Rattus norvegicus; test: Selectivity ratio of Ki for rat liver sigma 2 receptor to Ki for rat liver sigma 1 receptor

## O=c1oc2ccccc2n1CC1CCN(Cc2ccccc2Cl)CC1
[1]
  Ki: 61 nM
[2]
  Ratio Ki: 5
